From patent US20060019313A1, “Method for detecting molecular surface interactions” (Biacore AB, priority 2004, published 2006)

Sequences of proteins named here, by UniProt entry; tags and fusion partners are left off. Residues count along the entry.
UniProt P02768, 25-609: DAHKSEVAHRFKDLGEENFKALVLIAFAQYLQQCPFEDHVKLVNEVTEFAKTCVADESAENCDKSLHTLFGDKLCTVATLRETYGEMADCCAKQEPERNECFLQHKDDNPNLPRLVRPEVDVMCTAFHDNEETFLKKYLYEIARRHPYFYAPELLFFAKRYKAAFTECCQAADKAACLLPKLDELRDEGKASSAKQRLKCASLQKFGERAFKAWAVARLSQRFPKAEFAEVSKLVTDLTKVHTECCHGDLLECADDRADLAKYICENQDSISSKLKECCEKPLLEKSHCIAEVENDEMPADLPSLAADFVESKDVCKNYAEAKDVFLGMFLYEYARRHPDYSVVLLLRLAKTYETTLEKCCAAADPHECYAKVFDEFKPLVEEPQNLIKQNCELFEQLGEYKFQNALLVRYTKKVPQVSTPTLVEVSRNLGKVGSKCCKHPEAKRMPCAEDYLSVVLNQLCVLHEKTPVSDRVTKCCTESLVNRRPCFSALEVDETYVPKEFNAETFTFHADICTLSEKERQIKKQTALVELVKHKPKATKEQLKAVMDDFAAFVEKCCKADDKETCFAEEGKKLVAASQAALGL

Experiments:
[1] = biological target: T1, human serum albumin (HSA) (Homo sapiens, UniProt P02768); settings: stated as known; cited from earlier work
[2] = biological target: T1, human serum albumin (HSA); settings: 50 μM; HBSS1% (30% saliva, 1% DMSO) vs HBS1%; three times each; Fc3−Fc2, buffer injection subtracted; FIG. 6

In the case of `CCC(Cc1c(I)cc(I)c(O)c1I)C(=O)O` (stereo not drawn) [iophenoxic acid, α-ethyl-3-hydroxy-2,4,6-triiodohydro-cinnamic acid], the “binding to HSA” value [1] is listed as “known to bind to HSA” and the “binding to immobilized HSA, corrected sensorgrams, saliva-containing buffer versus pure buffer” value [2] is listed as “sensorgrams D (saliva-containing buffer) agree with the sensorgrams C (pure buffer)”.
